Target: T1, mouse THTR-2 (mTHTR-2) (Mus musculus, UniProt Q99PL8)
T1 sequence (Q99PL8 1-488): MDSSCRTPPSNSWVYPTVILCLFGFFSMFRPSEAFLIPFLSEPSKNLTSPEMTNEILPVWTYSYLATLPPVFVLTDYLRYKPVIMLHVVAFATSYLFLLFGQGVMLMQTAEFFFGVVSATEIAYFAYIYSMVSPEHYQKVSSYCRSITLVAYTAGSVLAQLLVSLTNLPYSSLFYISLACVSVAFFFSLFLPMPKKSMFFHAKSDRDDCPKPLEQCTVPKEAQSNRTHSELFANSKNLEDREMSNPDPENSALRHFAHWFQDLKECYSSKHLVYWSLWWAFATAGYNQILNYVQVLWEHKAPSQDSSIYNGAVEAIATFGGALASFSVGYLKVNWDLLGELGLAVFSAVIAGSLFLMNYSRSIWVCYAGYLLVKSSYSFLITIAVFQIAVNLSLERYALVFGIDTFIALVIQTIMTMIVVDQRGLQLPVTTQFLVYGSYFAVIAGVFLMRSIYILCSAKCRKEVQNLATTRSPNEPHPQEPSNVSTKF
Test: cell-based

- IC50: 22.2 ± 3.99 µM
Compound: Cc1cnc(Nc2ccc(OCCN3CCCC3)cc2)nc1Nc1cccc(S(=O)(=O)NC(C)(C)C)c1 [fedratinib]

From paper PMC4800991 (Molecular pharmaceutics, 2015)
